The source of these data is PubChem BioAssay AID624170 (National Center for Advancing Translational Sciences (NCATS), 2012).

Sequences of proteins named here, by UniProt entry; tags and fusion partners are left off.
UniProt O94925, whole entry: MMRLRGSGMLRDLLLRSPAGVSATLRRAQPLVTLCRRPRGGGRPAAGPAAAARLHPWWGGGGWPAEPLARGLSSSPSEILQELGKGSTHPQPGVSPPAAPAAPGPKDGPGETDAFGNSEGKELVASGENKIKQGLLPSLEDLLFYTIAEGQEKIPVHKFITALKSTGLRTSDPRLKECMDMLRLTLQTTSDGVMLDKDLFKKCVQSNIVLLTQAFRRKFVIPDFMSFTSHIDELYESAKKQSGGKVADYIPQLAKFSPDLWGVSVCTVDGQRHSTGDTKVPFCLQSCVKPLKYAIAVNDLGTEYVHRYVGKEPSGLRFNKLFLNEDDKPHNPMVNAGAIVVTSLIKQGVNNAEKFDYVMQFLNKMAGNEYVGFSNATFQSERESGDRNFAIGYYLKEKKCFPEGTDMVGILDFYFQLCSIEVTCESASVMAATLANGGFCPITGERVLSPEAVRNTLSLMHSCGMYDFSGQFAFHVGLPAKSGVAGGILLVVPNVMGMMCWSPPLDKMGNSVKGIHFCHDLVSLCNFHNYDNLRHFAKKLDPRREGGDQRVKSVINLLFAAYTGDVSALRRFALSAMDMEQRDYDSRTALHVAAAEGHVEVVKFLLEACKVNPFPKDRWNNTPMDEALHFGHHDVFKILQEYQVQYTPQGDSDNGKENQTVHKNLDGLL

The structures appear in SMILES notation. Only a part is listed here, and it is no random draw. Inconclusive results are not listed. Calls of active or inactive are those of the source. Calls come from the whole dose curve; as a rule, active = well fitted inhibition curve with a large enough effect; inconclusive = small, poorly fitted or top-dose-only effect, or another doubt; inactive = no such curve, though single readings can be large or run the other way.
% is set by controls: 0 for no effect and ±100 for the full control effect.

The target in this assay is Glutaminase kidney isoform, mitochondrial (Homo sapiens) (UniProt O94925). Description: qHTS for Inhibitors of Glutaminase (GLS). Conditions: GLS enzymatic activity, qHTS titration; at 45.5 µM (top of the series).
With `CCC(=O)N(c1ccccc1)C1(COC)CCN(CCn2nnn(CC)c2=O)CC1`, the activity change, negative = inhibition was inactive: -3.88%.
